These molecules were tested against Recombinant human cathepsin S (CatS) (Homo sapiens, UniProt P25774) (assay: biochemical).

Sequences of proteins named here, by UniProt entry; tags and fusion partners are left off. Residues count along the entry.
UniProt P25774, 115-331: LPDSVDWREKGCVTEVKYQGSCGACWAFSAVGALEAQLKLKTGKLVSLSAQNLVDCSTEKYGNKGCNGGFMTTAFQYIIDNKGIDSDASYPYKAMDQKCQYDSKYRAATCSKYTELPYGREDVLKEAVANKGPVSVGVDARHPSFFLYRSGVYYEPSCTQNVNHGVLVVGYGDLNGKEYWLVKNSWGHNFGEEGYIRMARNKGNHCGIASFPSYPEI

Question: With `CC1C(=O)NCCN1CC(O)Cn1nc(-c2ccc(C(F)(F)F)c(SCCN3CCOCC3)c2)c2c1CCN(S(C)(=O)=O)C2` (centres unmarked) [Example 459, 4-{2-Hydroxy-3-[5-(methylsulfonyl)-3-{3-[(2-morpholin-4-ylethyl)sulfanyl]-4-(trifluoromethyl)phenyl}-4,5,6,7-tetrahydro-1H-pyrazolo[4,3-c]pyridin-1-yl]propyl}-3-methylpiperazin-2-one] as the molecule, how does the IC50 read?
Answer: 2990 nM

Question: `CCOC(=O)NC1CCN(CC(O)Cn2nc(-c3ccc(C(F)(F)F)c(SCCN4CCCCC4)c3)c3c2CCNC3)CC1` (centres unmarked) [Example 365, Ethyl {1-[2-hydroxy-3-(3-{3-[(2-piperidin-1-ylethyl)sulfanyl]-4-(trifluoromethyl)phenyl}-4,5,6,7-tetrahydro-1H-pyrazolo[4,3-c]pyridin-1-yl)propyl]piperidin-4-yl}carbamate] was tested. Which IC50 did it give?
Answer: 1900 nM

Question: With `CS(=O)(=O)N1CCc2c(c(-c3ccc(C(F)(F)F)c(SCCN4CCC(F)CC4)c3)nn2CC(O)CN2CCC[C@H](C(=O)O)C2)C1` (stereo partly drawn) [Example 611, (3S)-1-(3-{3-[3-{[2-(4-Fluoropiperidin-1-yl)ethyl]sulfanyl}-4-(trifluoromethyl)phenyl]-5-(methylsulfonyl)-4,5,6,7-tetrahydro-1H-pyrazolo[4,3-c]pyridin-1-yl}-2-hydroxypropyl)piperidine-3-carboxylic acid] as the molecule, how does the IC50 read?
Answer: 340 nM

Question: With `CS(=O)(=O)N1CCc2c(c(-c3ccc(C(F)(F)F)c(SCCN4CCOCC4)c3)nn2CC(O)CN2CCN(c3ccccc3O)CC2)C1` (centres unmarked) [Example 736, 2-(4-{2-Hydroxy-3-[5-(methylsulfonyl)-3-{3-[(2-morpholin-4-ylethyl)sulfanyl]-4-(trifluoromethyl)phenyl}-4,5,6,7-tetrahydro-1H-pyrazolo[4,3-c]pyridin-1-yl]propyl}piperazin-1-yl)phenol] as the molecule, how does the IC50 read?
Answer: 40 nM

Question: Which IC50 does the source give for `CS(=O)(=O)N1CCc2c(c(-c3ccc(C(F)(F)F)c(SCC(=O)N4CC[C@@H](O)C4)c3)nn2CC(O)CN2CCC(C(=O)N3CCCC3)CC2)C1` (stereo partly drawn) [Example 805, (3R)-1-[({5-[1-{2-Hydroxy-3-[4-(pyrrolidin-1-ylcarbonyl)piperidin-1-yl]propyl}-5-(methylsulfonyl)-4,5,6,7-tetrahydro-1H-pyrazolo[4,3-c]pyridin-3-yl]-2-(trifluoromethyl)phenyl}sulfanyl)acetyl]pyrrolidin-3-ol] here?
Answer: 40 nM

Question: How did the IC50 turn out when `CC1(C)CCN(C[C@H](O)Cn2nc(-c3ccc(C(F)(F)F)c(SCCN4CCC(F)CC4)c3)c3c2CCNC3)CC1` [Example 311, (2S)-1-(4,4-Dimethylpiperidin-1-yl)-3-{3-[3-{[2-(4-fluoropiperidin-1-yl)ethyl]sulfanyl}-4-(trifluoromethyl)phenyl]-4,5,6,7-tetrahydro-1H-pyrazolo[4,3-c]pyridin-1-yl}propan-2-ol] was run?
Answer: 3680 nM

Question: For `CC1CCN(CCSc2cc(-c3nn(C[C@@H](O)CN4CCCC4)c4c3CN(S(C)(=O)=O)CC4)ccc2C(F)(F)F)CC1` [Example 344, (2S)-1-{3-[3-{[2-(4-Methylpiperidin-1-yl)ethyl]sulfanyl}-4-(trifluoromethyl)phenyl]-5-(methylsulfonyl)-4,5,6,7-tetrahydro-1H-pyrazolo[4,3-c]pyridin-1-yl}-3-pyrrolidin-1-ylpropan-2-ol], which IC50 is on record?
Answer: 280 nM

Question: Which IC50 does the source give for `CS(=O)(=O)N1CCc2c(c(-c3ccc(C(F)(F)F)c(SCCN4CCOCC4)c3)nn2CC(O)CN2CCC(C#N)(c3ccccc3)CC2)C1` (centres unmarked) [Example 765, 1-{2-Hydroxy-3-[5-(methylsulfonyl)-3-{3-[(2-morpholin-4-ylethyl)sulfanyl]-4-(trifluoromethyl)phenyl}-4,5,6,7-tetrahydro-1H-pyrazolo[4,3-c]pyridin-1-yl]propyl}-4-phenylpiperidine-4-carbonitrile] here?
Answer: 95 nM
